Reference: patent publication US5795977A, “Water soluble adenosine kinase inhibitors” (Metabasis Therapeutics, Inc., priority 1996, dated 1998)

Biological target: partially purified pig heart adenosine kinase or recombinant human adenosine kinase
Assay: AK inhibition
Type: biochemical
Conditions: 0.5 μM [U-14C] adenosine, pH 7.0, 37° C., 20 minutes
Procedure: Adenosine kinase activity was measured essentially as described by Yamada et al. Biochim. Biophys. Acta 660, 36-43 (1988) with a few minor modifications. Assay mixtures contained 50 mM TRIS-maleate buffer, pH 7.0, 0.1% BSA, 1 mM ATP 1 mM MgCl2, 0.5 μM [U-^14 C] adenosine (400-600 mCi/mmol) and varying duplicate concentrations of inhibitor. […] The amount of ^14 C-AMP was quantified by scintillation counting.

Compound: C[C@H]1O[C@@H](n2cc(I)c3c(NCc4ccncc4)ncnc32)[C@H](O)[C@@H]1O [Compound 42, 4-N-(4-pyridylmethylamino)-5-iodo-7-(5-deoxy-1-β-D-ribofuranosyl)pyrrolo[2,34]pyrimidine]
- IC50: 75 nM
